Experimental data from ChEMBL document CHEMBL5728057, “3-((hetero-)aryl)-8-amino-2-oxo-1,3-diaza-spiro-[4.5]-decane derivatives” (2020).

Target: Nociceptin receptor (Homo sapiens, UniProt P41146)
Test: Human Nociceptin/Orphanin FQ Peptide (hNOP) Receptor Binding Assay: The hNOP receptor binding assay was performed as homogeneous SPA-assay (scintillation proximity assay) using the assay buffer 50 mM TRIS-HCl. 10 mM MgCl2. 1 mM EDTA (pH 7.4). The final assay volume (250 μl/well) included 0.5 nM of [leucyl-3H]nociceptin as ligand (PerkinElmer Life Sciences. Inc. Boston. Mass. USA). and either test

CN(C)[C@]1(c2ccccc2)CC[C@]2(CC1)CN(c1cnc(-c3cccc4c3CC(=O)N4)nc1)C(=O)N2
Ki: 2 nM
